In patent US20090226395A1, “Pharmaceutical compositions of beta-lapachone and beta-lapachone analogs with improved tumor targeting potential” (ArQule, Inc., priority 2004, published 2009):

Experiment: Hydrolytic release of β-lapachone or ketal from poly-L-glutamate conjugates, monitored by HPLC
Type: physicochemical
Description: […] The complete release of 2,2-dimethyl-3,4-dihydro-2H-benzo[h]chromene-5,6-dione from the conjugate is achieved within 2-3 days as monitored by HPLC. In addition to the 2,2-dimethyl-3,4-dihydro-2H-benzo[h]chromene-5,6-dione peak, two additional peaks are detected in the HPLC chromatogram. These peaks are believed to be products of the degradation of 2,2-dimethyl-3,4-dihydro-2H-benzo[h]chromene-5,6-dione and an alternate hydrolysis product of conjugate. The concentration of released 2,2-dimethyl-3,4-dihydro-2′-1-benzo[h]chromene-5,6-dione is calculated by comparing the peak areas with the previously obtained calibration curve of 2,2-dimethyl-3,4-dihydro-2H-benzo[h]chromene-5,6-dione standard. […] Loading on the polymer is then calculated as follows: […]
The conjugate is dissolved in water at a concentration of about 0.3 mg/ml and sonicated to facilitate dissolution. […] The concentration of released 2,2-dimethyl-3,4-dihydro-2H-benzo[h]chromene-5,6-dione is determined by HPLC and the quantity calculated by comparing the peak areas with a previously obtained calibration curve of 2,2-dimethyl-3,4-dihydro-2H-benzo[h]chromene-5,6-dione standard, as described above in Example 10. […]

Substance	time for release of the ketal 4′-(hydroxymethyl)-...-dioxolan]-5-one from the conjugate (0.1 M NaOH, about 1 mg/ml)	time for hydrolysis of β-lapachone from the conjugate (ten-fold dilution into 1 M HCl)
(2,2-dimethyl-5-oxo-3,4-dihydro-2H,5H-spiro[benzo[h]chromene-6,2′-[1,3]dioxolan]-4′-yl)methyl γ-poly-L-glutamate sodium	about 20 min	
N-{2-[(4-{[(6Z)-2,2-dimethyl-5-oxo-3,4-dihydro-2H-benzo[h]-chromen-6(5H)-ylidene]amino}benzoyl)oxy]ethyl}γ-poly-L-glutamate [Sample A]		~4 min
